The values that follow come from patent US20230146795A1, “ENHANCEMENT OF ANTI-TUMOR ACTIVITY OF SHP2 INHIBITOR PYRIMIDINONE IN COMBINATION WITH NOVEL CANCER MEDICINES IN CANCERS” (TAIHO PHARMACEUTICAL CO., LTD., priority 2020, published 2023).

One assay has as its system MV-4-11. Kind of assay: Anti-proliferation assay (CellTiter-Glo 2.0), combination index, MV-4-11. It is filed as cell-based. The conditions noted are these: Compound 1 123 + combination drug 41.2 nmol/L (1:0.3). As to the method: Cell lines were obtained from ATCC or Health Science Research Resources Bank.
384 well culture plate (781086, Greiner Bio-One International) was used for cell survival rate measurement assay. Each cell lines were collected by ordinary method, then suspended in indicated medium containing 10% fetal bovine serum in table 3. The number of cells seeded per well was set to 500 cells/20 μL. After incubation at 37° C. for 24 hours under 5% CO2, Compound 1 and additional compound having an antitumor effect or a vehicle (DMSO) was added to each well by using D300e Digital Dispenser (Tecan). The concentration of Compound 1 was set to 10 concentrations. The concentration of each anti-cancer reagents set to 8 concentrations including 0 nM. After adding the medicine to the cells, the cells were further incubated at 37° C. for 3 days under 5% CO2. Cell survival rates were calculated by adding 20 μL of CellTiter-Glo(registered trademark) 2. 0 (Promega) solution to each well, incubating the cells at room temperature for 10 minutes, and then measuring the chemiluminescence intensity of each well using a plate reader (ARVO).
A combination index (CI) value at each combined concentration of the medicines was determined.
In general terms: Cellular ATP, detected with luciferase, serves as a proxy for viable cell number.

The test system of assay [1] is human colorectal cancer cell line SW837. Kind of assay: Antitumor effect on SW837 tumor subcutaneously implanted to SCID-Beige mouse. Conditions: cetuximab alone, 1 mg/kg/day intra-peritoneal on day 1, 4, 8, 11, 15, 18, 22, 25; day of assessment. It is filed as in vivo. How it is done: With reference to Clin Cancer Invest. 2011, 121 (11): 4311-4321, a cell suspension of a human gastric cancer line SW837 (available from American Type Culture Collection) was subcutaneously implanted to 6-week-old male SCID-Beige mice (Charles River Japan, Inc.) at 8×10^6 cells/mouse. For grouping (n=5/group), after the cell suspension implantation, tumor volumes (TV) were calculated according to the expression given below, and mice having TV of 100 to 200 mm^3 were selected and assigned such that average TV was equal among groups. The day at which the grouping was carried out was defined as Day 0.
TV (mm^3)=(Major axis×Minor axis^2)/2 (units for the major axis and the minor axis were mm).
Compound 1 at 25 mg/kg/day was orally administered once a day for 28 days. And cetuximab at 1 mg/kg/day (in terms of erbitux) was administered intra-peritoneal injection on day 1, 4, 8, 11, 15, 18, 22, 25. […]
Antitumor effects were evaluated by using the difference between the average values of tumor volumes (TV) in two groups to be compared at the day of assessment, as an index. TV was calculated according to the expression given below from TV values on the day of measurement and on the day of grouping. Also, T/C (%) was calculated from the average RTV values in medicine administration groups and a control group. […]

In the case of `CNC(=O)c1cc(Oc2ccc(NC(=O)Nc3ccc(Cl)c(C(F)(F)F)c3)cc2)ccn1` [Sorafenib], the CI in the assay with MV-4-11 is recorded as 0.158.
“cetuximab: antibody molecular targeting drug, EGFR inhibitor”: the “T/C (%)” value in assay [1] was determined as 37.7%.
